# Hits are enriched below; roughly 0.73% of the tested compounds scored in any of these assays.
# E-selectin induc – induces E-selectin expression in human endothelial cells; P16581; HUVEC E-selectin immunofluorescence imaging; normalized: neutral wells 0, TNF-alpha wells 100; activation, % at 7.58 µM; 260,000 compounds, 0.37% hits; AID 686992;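 active = mean E-selectin-positive cell signal at least 10% of the positive control, reached in at least 60% of replicates, without over 20% cell loss; inconclusive = no rule given, readout overlaps actives, possibly toxicity-flagged; inactive = the rest, including those meeting only one limit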
#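 Test system: HUVEC | Signal: Immunofluorescence imaging | Read-out: Percent E-selectin-positive cells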
# Xi reactivation – X-chromosome reactivation activator; 360,000 compounds, 0.055% hits; activation, % at 7.58 µM; XiGFP mouse fibroblasts, % GFP-positive cells imaging, 3 d; cells co-treated with 5-aza-dC sensitizer; scaled so ellipticine positive control = 100%;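 active = mean normalized replicate activation at least 10% and every replicate at or above 10%; inconclusive = only one of the two criteria met; inactive = mean below 10% and not all replicates reach 10%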
#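 Material: SV40-immortalized XiGFP fibroblast cells, line 68-5-11 | Buffer or medium: DMEM containing 5-aza-dC | Dosing: One concentration, pinned | Times: 3 d treatment, 15 min room-temperature fixation | Controls: Ellipticine 6 µM positive control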
# Yeast UUG start-1 – modulators of start codon recognition fidelity in yeast; S. cerevisiae UUG-firefly luciferase reporter, luminescence/redox ratio; activity score, % at 18.7 µM; hit rate 0.13% among 350,000; AID 602363;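 active = replicate mean at a twofold rise or more, about +100% in these data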;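 note: firefly luciferase made from a UUG start codon reports start codon fidelity; reporter light over untreated wells divided by growth signal over untreated wells; some hits fall short of that in this replicate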
# RAD52 inh – inhibitors of human RAD52 DNA annealing | 360,000 compounds, 0.46% hits | inhibition, % at 18.7 µM | AID 651710 | recombinant RAD52 DNA annealing, FRET fluorescence | P43351;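 active = every replicate showing at least 50% inhibition; inconclusive = mean inhibition at least 50% but not in every replicate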
# RAD54 branch – blocks human RAD54 Holliday junction branch migration | Q92698 | FAM/BHQ fluorescence | inhibition, % at 10.4 µM | 360,000 compounds, 0.14% hits | AID 602329;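 active = mean normalized replicate activity at least 40 and at least half of replicates scoring 40 or more; inconclusive = only one of the two criteria met; inactive = mean below 40 and under half of replicates reaching 40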;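 note: inhibitors cause a drop in the FAM fluorescence signal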
# Rad54 DNA ctr – DNA binding artifact in Rad54 counter-screen. shares compounds with RAD54 branch. 460 compounds, 8% hits. AC50, µM (titrated, usually from 35 µM). AID 651673. Acridine orange-DNA displacement, fluorescence polarization, 20 min;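 active = signal drop giving an AC50 within twice the top valid tested concentration of each sample, actives reach about 35 µM in these data; inactive = activity opposite to expected, plus the rest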;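 note: polarization loss reports compound binding to salmon sperm DNA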
# Yeast UUG start-2 – modulators of start codon recognition fidelity in yeast; shares compounds with Yeast UUG start-1; S. cerevisiae UUG-start firefly luciferase, luminescence, 4 h; 100% means double the DMSO signal; activation, % at 38 µM; 540 tested, under 10 active; AID 652061;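 active = signal increase whose fitted curve reaches an absolute level of 40 at a concentration under 10 µM; inactive = activity opposite to the expected increase, or the rest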
# RAD52 DNA ctr – DNA binding artifact in RAD52 counter-screen; shares compounds with RAD52 inh; AC50, µM; 1,000 compounds, 8% hits; Salmon sperm DNA/acridine orange FP displacement; AID 652128;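 active = fitted half-maximal concentration for signal loss at or below twice the highest dose tested, in every separate run, actives reach about 64 µM in these data; inconclusive = runs disagree, or flat partial signal loss, or poor fit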
# Numbers stand for hits; - = inactive; ? = inconclusive; . = no result.
SMILES,E-selectin induc,Xi reactivation,Yeast UUG start-1,RAD52 inh,RAD54 branch,Rad54 DNA ctr,RAD52 DNA ctr,others
COc1ccc(-c2nn(C)c3sc(C(=O)NCCN(C)C)cc23)cc1OC,-,-,-,101,97,-,-,
CCCN(CCC)CCCNC(=O)c1cc2c(-c3ccc(OC)c(OC)c3)nn(C)c2s1,-,-,-,90,104,-,-,
O=C(NCC(F)(F)F)[C@H]1[C@H](CO)[C@H]2Cn3c(cccc3=O)[C@@H]1N2CC1CCCC1,-,-,.,-,.,.,.,
CO[C@@H]1CN(C)C(=O)c2cc(NC(=O)C3CCOCC3)ccc2OC[C@H](C)N(CC2CC2)C[C@@H]1C,-,-,.,-,-,.,.,
Cc1cc(C)c2c(c1)c1nnc(SCCN3CCCCC3)nc1n2C,-,-,-,86,73,-,-,
O=C(C[C@H]1C[C@@H]2c3cc(NC(=O)c4ccc5c(c4)OCO5)ccc3O[C@@H]2[C@H](CO)O1)NCC1CC1,-,-,-,-,-,.,.,
Cc1ccc(S(=O)(=O)Nc2ccc3c(c2)C(=O)N([C@H](C)CO)C[C@@H](C)[C@H](CN(C)C(=O)Nc2ccc4c(c2)OCO4)O3)cc1,-,-,.,.,.,.,.,
COc1ccc(Cc2c(-c3ccc(OC)c(OC)c3)nc3c(C)cc(Br)cn23)c(C)c1,-,-,-,52,60,-,-,
CN(C)CCCNc1nc2cc(-c3cncnc3)sc2c(=O)n1C,-,-,-,-,-,.,.,
CN(C)CCCNc1nc2cc(-c3ccccc3)sc2c(=O)n1C,-,-,-,54,?,-,-,
CN(C)CCCNc1nc2cc(-c3ccc(F)cc3)sc2c(=O)n1C,-,-,-,71,70,-,-,
COc1ccc2c3c(n(C)c2c1)[C@H](CO)N(CC1CCCC1)CC31CN(C(C)=O)C1,-,-,.,-,.,.,.,
C[C@H]1CN([C@@H](C)CO)C(=O)c2cc(NC(=O)Nc3ccc4c(c3)OCO4)ccc2O[C@@H]1CN(C)Cc1ccccc1,-,-,-,-,-,.,.,
Cc1[nH]ccc2cc3nc4ccccc4c3cc12,-,-,-,101,83,-,?,
Cc1cccc2nc3ccccc3cc12,-,-,-,-,-,.,.,
CN(C)C(=O)c1ccc(-c2ccc3c(c2)[C@H]2[C@H](CCN2C(=O)c2ccccc2F)[C@H](CO)N3)cc1,?,-,-,.,-,.,.,
C=CCNc1nc(N)c([N+](=O)[O-])c(Nc2ccccc2OC)n1,-,-,-,-,-,.,.,
COc1ccccc1Nc1nc(NCCCN(C)C)nc(N)c1[N+](=O)[O-],-,-,-,95,77,-,-,
COc1cccc(-c2cc(NC=O)c3ncc(-c4cccc(C(=O)NCCN(C)C)c4)n3c2)c1,-,-,-,94,81,-,-,
CC(=O)c1ccc(-c2cnc3c(NC=O)cc(-c4ccc(S(C)(=O)=O)cc4)cn23)cc1,.,-,-,-,-,.,.,
CC(=O)Nc1cc(-c2ccc(N3CCN(C)CC3)cc2)cn2c(-c3ccc(S(C)(=O)=O)cc3)cnc12,-,-,-,73,104,-,-,
COc1cccc(-c2cc(NC=O)c3ncc(-c4cccc(C(=O)N(C)C)c4)n3c2)c1,-,-,-,-,-,.,.,
CN(C)CCNC(=O)c1cccc(-c2cnc3c(NC=O)cc(-c4ccc(S(C)(=O)=O)cc4)cn23)c1,-,-,-,96,65,-,-,
C[C@H](CO)N1C[C@H](C)[C@@H](CN(C)C(=O)c2ccncc2)OCCCC[C@H](C)Oc2ccc(NC(=O)NC3CCCCC3)cc2C1=O,-,-,-,.,-,.,.,
C[C@H](c1ccccc1)N1C[C@@H](COCc2ccccc2)Oc2cccc(N3CCCC3)c2S1(=O)=O,-,-,.,-,.,.,.,
SMILES,E-selectin induc,Xi reactivation,Yeast UUG start-1,RAD52 inh,RAD54 branch,Rad54 DNA ctr,RAD52 DNA ctr,others
N=c1c(C(=O)NCCN2CCOCC2)cc2c(=O)n3ccccc3nc2n1CCCN1CCOCC1,.,-,-,77,57,-,-,
N=c1c(C(=O)NCCN2CCOCC2)cc2c(=O)n3ccccc3nc2n1Cc1ccc(F)cc1,.,-,-,-,-,.,.,
CN(C)CCNc1ncnc2sc(-c3ccccc3)cc12,-,-,-,59,67,-,-,
CNc1ncnc2sc(-c3ccccc3)cc12,-,-,-,-,-,.,.,
C[C@@H]1CN([C@H](C)CO)C(=O)c2cc(-c3cccnc3)cnc2O[C@H]1CN(C)Cc1ccccc1,-,-,.,.,.,.,.,
CCOc1cc2[nH]c(=S)n(Cc3ccc(C(=O)NCCCN(CC)CC)cc3)c(=O)c2cc1OCC,-,-,-,67,51,-,-,
C[C@@H]1CN([C@H](C)CO)S(=O)(=O)c2ccc(C#Cc3ccccc3)cc2O[C@@H]1CN(C)C(=O)Cc1ccccn1,-,-,-,-,-,.,.,
CC(=O)N1[C@@H](CO)[C@@H](c2ccc(-c3ccc(F)cc3)cc2)[C@@H]1CNC(=O)C1CC1,-,-,-,.,-,.,.,
CS(=O)(=O)N1[C@H](C#N)[C@@H](c2ccc(C#CC3CC3)cc2)[C@@H]1CO,-,-,-,-,-,.,.,
Cc1ccc2nc(Cl)c3cc(C(=O)NCCCN4CCCC4)sc3c2c1,-,-,-,79,79,-,48µM,
CCCN1CCN(CCCNC(=O)c2cc3c(=O)oc4ccc(C)cc4c3s2)CC1,.,-,-,-,-,.,.,
CN(C)CCCN(C(=O)c1ccc([N+](=O)[O-])o1)c1nc2cc3c(cc2s1)OCO3,-,-,-,75,?,-,?,
CN(C)CCNc1ncnc2c1sc1nc(N3CCCC3)c3c(c12)CC(C)(C)OC3,.,-,-,88,97,-,-,
CC(C)CNc1ncnc2c1sc1nc(N3CCOCC3)c3c(c12)CC(C)(C)OC3,.,.,-,.,-,.,.,
O=C(Cc1ccccc1)NC(NNc1ccccc1)(C(F)(F)F)C(F)(F)F,.,.,481,.,-,.,.,Yeast UUG start-2=-
Cc1ccc(-c2cnc3c(c2)C(=O)N([C@@H](C)CO)C[C@@H](C)[C@H](CN(C)C(=O)CN(C)C)O3)cc1,-,-,163,-,-,.,.,Yeast UUG start-2=-
C[C@@H]1CN([C@@H](C)CO)C(=O)c2cc(C#CCC3CCCC3)cnc2O[C@@H]1CN(C)C(=O)CN(C)C,-,-,125,-,-,.,.,Yeast UUG start-2=-
Cc1ccc(S(=O)(=O)Nc2ccc3c(c2)CC(=O)N([C@@H](C)CO)C[C@@H](C)[C@@H](CN(C)C(=O)Nc2cccc4ccccc24)O3)cc1,-,-,-,-,-,.,.,
CCOC(=O)C1CCN(Cc2cnc(Oc3ccc(C(C)(C)C)cc3)s2)CC1,-,.,127,.,-,.,.,Yeast UUG start-2=-
CCOC(=O)C1CCN(Cc2cnc(NC(=O)OC)s2)CC1,.,.,-,.,-,.,.,
C[C@@H]1CCCCO[C@H](CN(C)Cc2ccc3c(c2)OCO3)[C@@H](C)CN([C@H](C)CO)C(=O)c2cc(NC(=O)CCC(F)(F)F)ccc2O1,-,-,-,-,-,.,.,

# Assay outcomes: PubChem BioAssay, Broad Institute
